One compound from US20090092553A1, “MONOCARBOXYLATE TRANSPORTERS EXPRESSED IN CANCER CELLS” (Xenoport,Inc., priority 2003, published 2009) can be followed below.

This assay deals with PC3 human prostate cancer epithelial cell line. The experiment in a line: Alamar blue cytotoxicity assay, PC3 cells. The conditions noted are these: PC3, 48 hour treatment.

SMILES strings stand for the structures. Some compounds may have been tested in ways that are not shown here.

Broadly, the GI50 is the concentration that inhibits growth by half. Low values mean more potent growth inhibition, high ones less potent growth inhibition. `O=C(O)CON(CCCl)CCCl` registered a GI50 of 15 µM.
